This note sets out measurements from ChEMBL document CHEMBL1649420, “Identifying chelators for metalloprotein inhibitors using a fragment-based approach” (J Med Chem, 2011).

For this assay, the target named is T1, Polyunsaturated fatty acid 5-lipoxygenase (Homo sapiens) (UniProt P09917).
T1 sequence (whole entry): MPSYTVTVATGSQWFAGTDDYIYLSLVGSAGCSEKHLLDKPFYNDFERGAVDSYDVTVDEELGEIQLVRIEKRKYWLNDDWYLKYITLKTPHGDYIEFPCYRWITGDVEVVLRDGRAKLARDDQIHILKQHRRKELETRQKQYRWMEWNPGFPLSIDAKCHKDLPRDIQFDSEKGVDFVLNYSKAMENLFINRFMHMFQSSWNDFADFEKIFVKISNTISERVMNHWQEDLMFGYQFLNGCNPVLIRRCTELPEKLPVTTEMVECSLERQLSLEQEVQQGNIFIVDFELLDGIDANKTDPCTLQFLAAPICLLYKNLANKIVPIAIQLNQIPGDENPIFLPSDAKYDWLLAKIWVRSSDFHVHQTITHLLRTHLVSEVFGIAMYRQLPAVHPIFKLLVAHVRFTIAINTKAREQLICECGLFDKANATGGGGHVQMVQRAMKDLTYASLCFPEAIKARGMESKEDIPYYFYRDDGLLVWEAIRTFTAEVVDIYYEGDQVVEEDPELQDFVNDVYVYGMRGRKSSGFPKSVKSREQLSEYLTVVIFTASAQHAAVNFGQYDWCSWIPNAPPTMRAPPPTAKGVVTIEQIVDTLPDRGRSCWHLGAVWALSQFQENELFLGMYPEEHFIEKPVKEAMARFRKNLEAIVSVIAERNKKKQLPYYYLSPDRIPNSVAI
As to the kind of experiment: Inhibition of human recombinant 5-lipoxygenase at 1 mM after 10 mins by fluorescence assay.

In the case of `O=C(O)c1ccc2cccc(O)c2n1`, the inhibition was determined as 61%.
